Results reported in patent publication US20040038428A1, “Protein microarrays” (priority 2000, published 2004).

Molecular target: T1, FRB domain of FRAP and FKBP12 (Homo sapiens, UniProt P42345+P62942)
T1 construct: the FRB domain of FRAP and FKBP12; made in house; host or cells: Escherichia coli
Experiment: protein microarray: immobilized FRB probed with Cy5-FKBP12 with or without rapamycin
Type: binding
Conditions: FRB spotted at 1 mg/ml, 1 μM rapamycin
Description: To define the concentration range under which this assay can be performed, the concentration of both FRB (the immobilized protein) and Cy5-FKBP12 (the solution-phase protein; data not shown) were varied. At high concentrations of FRB (about 1 mg/ml), the fluorescence of the spots begins to saturate. Below this, the fluorescence scales linearly with decreasing concentrations of FRB. FIGS. 1, 2, 3, 5, and 7 employ a concentration of 100 μg/ml for the protein being spotted. This concentration is readily achievable in the context of high throughput protein expression/purification and can even be achieved using recently reported in vitro transcription/translation systems (Madin et al. Proc. Natl. Acad. Sci. USA 97:559-564, 2000; incorporated herein by reference).
Much lower concentrations are needed for the solution-phase protein. In the case of Cy5-FKBP12, fluorescence of the resulting spots scales linearly with protein concentration over four orders of magnitude (see FIG. 6). Specific binding can easily be detected using as little as 150 pg/ml Cy5-FKBP12 (˜12.5 pM). […] This means that specific protein-protein interactions, once defined, may potentially be exploited to quantify protein abundance and modification in whole cells or tissues (“profiling” at the protein level). […]

Substance: Cy5-FKBP12: (His)6-FKBP12 produced recombinantly in Escherichia coli, labeled with Cy5
- concentration of solution-phase protein at which specific binding is detected: 150 pg/ml and ~12.5 pM

Values joined by “and” are separate entries in the source; they are usually repeats but may differ in a detail not shown here. Equal values may be shown once.
